Values of other authors in article PMC4762448 (Journal of biomolecular screening, 2011).

Protein sequences, listed by entry. Tags and fused reporters are not part of them. Residues count along the entry.
UniProt P58154, 20-229 limits assumed: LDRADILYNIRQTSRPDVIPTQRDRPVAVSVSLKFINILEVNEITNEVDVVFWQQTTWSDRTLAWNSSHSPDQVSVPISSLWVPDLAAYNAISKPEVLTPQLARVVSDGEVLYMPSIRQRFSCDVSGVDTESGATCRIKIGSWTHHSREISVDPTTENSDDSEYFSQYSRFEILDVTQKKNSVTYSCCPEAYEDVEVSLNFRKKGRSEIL

Molecular target: Ls-AChBP (Lymnaea stagnalis, UniProt P58154)
Conditions: cited from earlier work

For `CN1CCC[C@H]1c1cccnc1` [nicotine], which Kd is on record?
The Kd was 42.5 nM.
